# Measured affinities in a library of Ab-14 light chain variants

Source: Engelhart et al. 2022 (doi:10.1038/s41597-022-01779-4), MIT Lincoln Laboratory and A-Alpha Bio; data file from the FLAb repository.

Target: peptide PDVDLGDISGINAS, taken from heptad repeat 2 (HR2) of SARS-CoV-2 spike.

Each scFv is VH, a (GGGGS)3 linker, VL, as in the parent Ab-14, and differs from it in the CDRs of the light chain only.
VH: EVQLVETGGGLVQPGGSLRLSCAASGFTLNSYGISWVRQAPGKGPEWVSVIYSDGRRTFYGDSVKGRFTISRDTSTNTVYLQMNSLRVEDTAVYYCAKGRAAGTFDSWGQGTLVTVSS
VL: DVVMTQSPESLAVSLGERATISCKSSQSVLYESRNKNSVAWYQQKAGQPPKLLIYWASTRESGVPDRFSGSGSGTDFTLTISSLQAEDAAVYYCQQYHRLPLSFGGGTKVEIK

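In library AAYL50, one, two or three CDR residues were substituted; doubles and triples were drawn at random. In AlphaSeq, yeast of one mating type display the scFv and yeast of the other type display the target. The frequency of each diploid, read from paired DNA barcodes, reflects how well the two displayed proteins bind. Scores were corrected for input abundance and mapped to Kd with protein pairs of known affinity run in the same pool. Mating was done three times.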

Changes read parent residue, position, new residue, counted from the first residue of the VL shown.
Every variant below is changed at S38 of the VL (sequential numbering).
The Kd shown is the geometric mean over detected replicates; a lower Kd is a better binder.
"nd" means that the variant was in the library but no mating with the target was seen in any replicate; the authors take this as a sign of poor binding, and no number exists.
Background: pairings of library AAYL50 with three empty control strains gave a value in 18% of cases (median 15 µM, 5th percentile 970 nM). Values in that range, when seen in few replicates, are hard to tell from nonspecific mating. Also given: how often the same scFv was detected with the empty control strains.

For K24G+S38W+S103K, the assay gave 31 µM (3 of 3 replicates; controls 5 of 9). With S38W+L100P the result was nd (0 of 3 replicates; controls 2 of 9). The variant S38I+W56G+A57Y gave 1.1 µM (2 of 3 replicates; controls 1 of 9). For S33M+S38R+P101W, the assay gave nd (0 of 3 replicates; controls 0 of 9). For S38C+Y97C+H98M, the assay gave 3.8 nM (3 of 3 replicates; controls 1 of 9). For S38Y+A40I+Y97S, the assay gave nd (0 of 3 replicates; controls 1 of 9). For N37V+S38V+Y97V, the assay gave 290 µM (3 of 3 replicates; controls 5 of 9). The variant Q27P+S38H+Q96S gave 170 nM (3 of 3 replicates; controls 1 of 9). The variant N35T+N37H+S38D showed 140 nM (3 of 3 replicates; controls 0 of 9).

The variant S38N+S58D+Y97C showed 14 µM (3 of 3 replicates; controls 3 of 9). With K24R+S38H+S62H the result was 380 nM (3 of 3 replicates; controls 1 of 9). With N37W+S38F+E61A the result was 150 µM (3 of 3 replicates; controls 5 of 9). With Q27G+S38D+T59Y the result was 1.6 µM (3 of 3 replicates; controls 6 of 9). The variant S33C+S38E+W56S gave nd (0 of 3 replicates; controls 2 of 9). For E32R+S38C+L102P, the assay gave 45 µM (2 of 3 replicates; controls 1 of 9). For V29Q+S38V, the assay gave 1.8 µM (1 of 3 replicates; controls 3 of 9). The variant V29D+S38W+Q96P gave nd (0 of 3 replicates; controls 1 of 9). For S28Y+S38K+Y97T, the assay gave nd (0 of 3 replicates; controls 1 of 9).

With S38W+E61L+Q96C the result was 14 µM (3 of 3 replicates; controls 3 of 9). For E32I+R34W+S38A, the assay gave nd (0 of 3 replicates; controls 0 of 9). The variant K36Q+S38W showed 3.1 µM (2 of 3 replicates; controls 2 of 9). The variant S38R+R60N+S103G showed nd (0 of 3 replicates; controls 4 of 9). With K24N+V29S+S38W the result was nd (0 of 3 replicates; controls 0 of 9). For S38R+S58F+Y97C, the assay gave 13 µM (1 of 3 replicates; controls 4 of 9). For S38I+A57F+L102D, the assay gave nd (0 of 3 replicates; controls 1 of 9). The variant R34M+S38C+P101A showed 3.8 µM (1 of 3 replicates; controls 0 of 9). With Q27D+S38H+S58I the result was nd (0 of 3 replicates; controls 0 of 9).

The variant L30R+S38K+V39C showed 11 µM (1 of 3 replicates; controls 2 of 9). The variant S25Y+S28L+S38Q gave 180 nM (3 of 3 replicates; controls 1 of 9). The variant N37I+S38Q+S62V showed 70 µM (1 of 3 replicates; controls 1 of 9). The variant S38C+T59S showed 1.6 µM (2 of 3 replicates; controls 1 of 9). The variant Q27L+N37C+S38E gave 1.0 µM (1 of 3 replicates; controls 0 of 9).

Repeated from above, the 4 best binders with a signal in all replicates:

changes,Kd (apparent),replicates with signal,signal with controls
S38C+Y97C+H98M,3.8 nM,3/3,1/9
N35T+N37H+S38D,140 nM,3/3,0/9
Q27P+S38H+Q96S,170 nM,3/3,1/9
S25Y+S28L+S38Q,180 nM,3/3,1/9

In this assay the parent's reference entry averaged 4.4 nM; its copy inside this library read 48 nM.